Laboratory results as given in publication PMC3894639 (Pharmacogenetics and genomics, 2013).

The chains behind the UniProt entries cited, without tags or fusion partners. Where a name states a change or a piece, a line headed by the entry shows the natural chain unless it says otherwise.
UniProt Q9Y6L6: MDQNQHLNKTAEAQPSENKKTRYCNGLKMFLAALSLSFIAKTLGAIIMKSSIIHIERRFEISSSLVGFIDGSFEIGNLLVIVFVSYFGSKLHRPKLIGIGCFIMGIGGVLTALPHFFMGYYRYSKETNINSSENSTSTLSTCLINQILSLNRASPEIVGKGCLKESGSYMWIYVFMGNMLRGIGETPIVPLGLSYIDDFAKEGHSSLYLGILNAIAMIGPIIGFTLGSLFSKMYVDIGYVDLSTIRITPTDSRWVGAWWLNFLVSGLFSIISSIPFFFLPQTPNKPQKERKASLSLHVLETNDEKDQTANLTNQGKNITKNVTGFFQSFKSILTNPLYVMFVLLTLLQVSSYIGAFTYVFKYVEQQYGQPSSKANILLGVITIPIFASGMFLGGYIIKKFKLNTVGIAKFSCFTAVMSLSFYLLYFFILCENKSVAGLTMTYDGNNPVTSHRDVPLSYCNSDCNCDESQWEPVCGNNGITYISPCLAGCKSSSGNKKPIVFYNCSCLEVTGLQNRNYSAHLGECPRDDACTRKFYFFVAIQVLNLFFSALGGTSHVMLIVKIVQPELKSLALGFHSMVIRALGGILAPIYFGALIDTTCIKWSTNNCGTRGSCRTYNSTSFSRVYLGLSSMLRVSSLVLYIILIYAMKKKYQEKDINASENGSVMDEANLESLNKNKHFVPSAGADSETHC

Columns and labels:
OATP1B1 [1] = biological target: T1, OATP1B1 (Homo sapiens, UniProt Q9Y6L6); assay: Prediction of clinical drug-drug interactions; details: R=1+fu×Iin,max/IC50, ES as substrate; oral dose listed per drug in Table 3
OATP1B1 [2] = biological target: T1, OATP1B1; details: 5 nmol/l [3H]-CER; concentrations up to 100 µmol/l
OATP1B1 [3] = biological target: T1, OATP1B1; details: 20 nmol/l [3H]-ES; concentrations up to 100 µmol/l

SMILES: CN(CCOc1ccc(CC2SC(=O)NC2=O)cc1)c1ccccn1 (stereo not drawn) [Rosiglitazone, Rosiglitazone-potassium salt]
- R (ES) (OATP1B1 [1]): 1.00
- Inhibition of OATP1B1-mediated uptake of cerivastatin (in words) (OATP1B1 [2]): inhibited
- Inhibition of OATP1B1-mediated uptake of ES (in words) (OATP1B1 [3]): inhibited

Where a name gives a salt, the structure may show the parent alone.
